Key:
Rattus norvegicus [1] = species on record: Rattus norvegicus; test: Open TG-GATES - Regimen: Daily Repeat; assay type: toxicity, organism-based, Sprague-Dawley; design: regimen Daily Repeat, gender Male, age 6 weeks; details: in vivo, po, route gavage; for MCH: tissue Blood
Rattus norvegicus [2] = species on record: Rattus norvegicus; test: Open TG-GATES - Regimen: Single; assay type: toxicity, organism-based, Sprague-Dawley; design: regimen Single, gender Male, age 6 weeks; details: in vivo, po, route gavage; for MCH: tissue Blood; for TC / BUN / Ca / TG: tissue Plasma
[3] = 0 mg/kg, 72 h, tissue Plasma, dose level Control, time 3 day
[4] = 0 mg/kg, […], tissue Plasma, dose level Control, time 7 day
[5] = 0 mg/kg, […], tissue Plasma, dose level Control, time 14 day
[6] = 0 mg/kg, […], tissue Plasma, dose level Control, time 28 day
[7] = 0 mg/kg, 3 h, dose level Control
[8] = 0 mg/kg, 6 h, dose level Control
[9] = 0 mg/kg, 9 h, dose level Control
[10] = 0 mg/kg, 24 h, dose level Control
[11] = 100 mg/kg, 24 h, dose level Low
[12] = 300 mg/kg, 3 h, dose level Middle
[13] = 300 mg/kg, 6 h, dose level Middle
[14] = 300 mg/kg, 9 h, dose level Middle
[15] = 300 mg/kg, 24 h, dose level Middle
[16] = 1000 mg/kg, 3 h, dose level High
[17] = 1000 mg/kg, 6 h, dose level High
[18] = 1000 mg/kg, 9 h, dose level High
[19] = 1000 mg/kg, 24 h, dose level High

CN(C)C(=N)N=C(N)N [METFORMIN]
MCH (Rattus norvegicus [1]; 0 mg/kg, 72 h, dose level Control, time 3 day): 21.8 pg | TC (Rattus norvegicus [1]; [3]): 86 mg/dL | MCH (Rattus norvegicus [1]; 0 mg/kg, […], dose level Control, time 7 day): 21.8 pg | MCH (Rattus norvegicus [1]; 0 mg/kg, […], dose level Control, time 14 day): 20.9 pg | MCH (Rattus norvegicus [1]; 0 mg/kg, […], dose level Control, time 28 day): 19.8 pg | TC (Rattus norvegicus [1]; [4]): 77.8 mg/dL | TC (Rattus norvegicus [1]; [5]): 73.6 mg/dL | TC (Rattus norvegicus [1]; [6]): 71.4 mg/dL | MCH (Rattus norvegicus [1]; 100 mg/kg, 72 h, dose level Low, time 3 day): 21.7 pg | TC (Rattus norvegicus [1]; 100 mg/kg, 72 h, tissue Plasma, dose level Low, time 3 day): 84 mg/dL | MCH (Rattus norvegicus [1]; 100 mg/kg, […], dose level Low, time 7 day): 21.4 pg | MCH (Rattus norvegicus [1]; 100 mg/kg, […], dose level Low, time 14 day): 20.9 pg | MCH (Rattus norvegicus [1]; 100 mg/kg, […], dose level Low, time 28 day): 19.6 pg | TC (Rattus norvegicus [1]; 100 mg/kg, […], tissue Plasma, dose level Low, time 7 day): 77.8 mg/dL | TC (Rattus norvegicus [1]; 100 mg/kg, […], tissue Plasma, dose level Low, time 14 day): 83.8 mg/dL | TC (Rattus norvegicus [1]; 100 mg/kg, […], tissue Plasma, dose level Low, time 28 day): 82 mg/dL | MCH (Rattus norvegicus [1]; 300 mg/kg, 72 h, dose level Middle, time 3 day): 21.3 pg | TC (Rattus norvegicus [1]; 300 mg/kg, 72 h, tissue Plasma, dose level Middle, time 3 day): 79.6 mg/dL | MCH (Rattus norvegicus [1]; 300 mg/kg, […], dose level Middle, time 7 day): 21.1 pg | MCH (Rattus norvegicus [1]; 300 mg/kg, […], dose level Middle, time 14 day): 20.8 pg | MCH (Rattus norvegicus [1]; 300 mg/kg, […], dose level Middle, time 28 day): 19.7 pg | TC (Rattus norvegicus [1]; 300 mg/kg, […], tissue Plasma, dose level Middle, time 7 day): 81 mg/dL | TC (Rattus norvegicus [1]; 300 mg/kg, […], tissue Plasma, dose level Middle, time 14 day): 81.8 mg/dL | TC (Rattus norvegicus [1]; 300 mg/kg, […], tissue Plasma, dose level Middle, time 28 day): 71.4 mg/dL | MCH (Rattus norvegicus [1]; 1000 mg/kg, 72 h, dose level High, time 3 day): 21.5 pg | TC (Rattus norvegicus [1]; 1000 mg/kg, 72 h, tissue Plasma, dose level High, time 3 day): 75.8 mg/dL | MCH (Rattus norvegicus [1]; 1000 mg/kg, […], dose level High, time 7 day): 20.9 pg | MCH (Rattus norvegicus [1]; 1000 mg/kg, […], dose level High, time 14 day): 20.5 pg | MCH (Rattus norvegicus [1]; 1000 mg/kg, […], dose level High, time 28 day): 19.8 pg | TC (Rattus norvegicus [1]; 1000 mg/kg, […], tissue Plasma, dose level High, time 7 day): 76.2 mg/dL | TC (Rattus norvegicus [1]; 1000 mg/kg, […], tissue Plasma, dose level High, time 14 day): 77.6 mg/dL | TC (Rattus norvegicus [1]; 1000 mg/kg, […], tissue Plasma, dose level High, time 28 day): 70.6 mg/dL | MCH (Rattus norvegicus [2]; [7]): 21.6 pg | MCH (Rattus norvegicus [2]; [8]): 20.9 pg | TC (Rattus norvegicus [2]; [8]): 76.6 mg/dL | MCH (Rattus norvegicus [2]; [9]): 21.5 pg | MCH (Rattus norvegicus [2]; [10]): 21.8 pg | TC (Rattus norvegicus [2]; [10]): 73.6 mg/dL | MCH (Rattus norvegicus [2]; 100 mg/kg, 3 h, dose level Low): 21.8 pg | MCH (Rattus norvegicus [2]; 100 mg/kg, 6 h, dose level Low): 21 pg | TC (Rattus norvegicus [2]; 100 mg/kg, 6 h, dose level Low): 78.4 mg/dL | MCH (Rattus norvegicus [2]; 100 mg/kg, 9 h, dose level Low): 21.3 pg | TC (Rattus norvegicus [2]; 100 mg/kg, 9 h, dose level Low): 71.8 mg/dL | MCH (Rattus norvegicus [2]; [11]): 21.7 pg | TC (Rattus norvegicus [2]; [11]): 73.4 mg/dL | MCH (Rattus norvegicus [2]; [12]): 21.1 pg | TC (Rattus norvegicus [2]; [12]): 81.8 mg/dL | MCH (Rattus norvegicus [2]; [13]): 21.2 pg | TC (Rattus norvegicus [2]; [13]): 76.8 mg/dL | MCH (Rattus norvegicus [2]; [14]): 21.5 pg | TC (Rattus norvegicus [2]; [14]): 77.2 mg/dL | MCH (Rattus norvegicus [2]; [15]): 21.4 pg | MCH (Rattus norvegicus [2]; [16]): 21.2 pg | TC (Rattus norvegicus [2]; [16]): 79.2 mg/dL | MCH (Rattus norvegicus [2]; [17]): 21.5 pg | MCH (Rattus norvegicus [2]; [18]): 21.9 pg | TC (Rattus norvegicus [2]; [18]): 79.8 mg/dL | MCH (Rattus norvegicus [2]; [19]): 21.6 pg | TC (Rattus norvegicus [2]; [19]): 79 mg/dL

Clc1ccccc1CN1CCc2sccc2C1 [TICLOPIDINE]
Ca (Rattus norvegicus [1]; [3]): 10.8 mg/dL | TG (Rattus norvegicus [1]; [3]): 101.8 mg/dL | Ca (Rattus norvegicus [1]; [4]): 10.7 mg/dL | Ca (Rattus norvegicus [1]; [5]): 10.6 mg/dL | Ca (Rattus norvegicus [1]; [6]): 10.8 mg/dL | Ca (Rattus norvegicus [1]; 30 mg/kg, 72 h, tissue Plasma, dose level Low, time 3 day): 10.8 mg/dL | Ca (Rattus norvegicus [1]; 30 mg/kg, […], tissue Plasma, dose level Low, time 7 day): 10.6 mg/dL | Ca (Rattus norvegicus [1]; 30 mg/kg, […], tissue Plasma, dose level Low, time 14 day): 10.7 mg/dL | Ca (Rattus norvegicus [1]; 30 mg/kg, […], tissue Plasma, dose level Low, time 28 day): 10.5 mg/dL | Ca (Rattus norvegicus [1]; 100 mg/kg, 72 h, tissue Plasma, dose level Middle, time 3 day): 10.9 mg/dL | Ca (Rattus norvegicus [1]; 100 mg/kg, […], tissue Plasma, dose level Middle, time 7 day): 10.7 mg/dL | Ca (Rattus norvegicus [1]; 100 mg/kg, […], tissue Plasma, dose level Middle, time 14 day): 10.5 mg/dL | Ca (Rattus norvegicus [1]; 100 mg/kg, […], tissue Plasma, dose level Middle, time 28 day): 10.7 mg/dL | Ca (Rattus norvegicus [1]; 300 mg/kg, 72 h, tissue Plasma, dose level High, time 3 day): 10.2 mg/dL | Ca (Rattus norvegicus [1]; 300 mg/kg, […], tissue Plasma, dose level High, time 7 day): 10.7 mg/dL | Ca (Rattus norvegicus [1]; 300 mg/kg, […], tissue Plasma, dose level High, time 14 day): 10.6 mg/dL | Ca (Rattus norvegicus [1]; 300 mg/kg, […], tissue Plasma, dose level High, time 28 day): 10.8 mg/dL | BUN (Rattus norvegicus [2]; [7]): 11.6 mg/dL | Ca (Rattus norvegicus [2]; [7]): 10.7 mg/dL | TG (Rattus norvegicus [2]; [7]): 50 mg/dL | BUN (Rattus norvegicus [2]; [8]): 9.8 mg/dL | Ca (Rattus norvegicus [2]; [8]): 10.7 mg/dL | TG (Rattus norvegicus [2]; [8]): 41 mg/dL | BUN (Rattus norvegicus [2]; [9]): 10.4 mg/dL | Ca (Rattus norvegicus [2]; [9]): 10.4 mg/dL | TG (Rattus norvegicus [2]; [9]): 34.2 mg/dL | BUN (Rattus norvegicus [2]; [10]): 13.6 mg/dL | Ca (Rattus norvegicus [2]; [10]): 10.7 mg/dL | TG (Rattus norvegicus [2]; [10]): 68 mg/dL | BUN (Rattus norvegicus [2]; 100 mg/kg, 3 h, dose level Low): 10 mg/dL | Ca (Rattus norvegicus [2]; 100 mg/kg, 3 h, dose level Low): 10.6 mg/dL | TG (Rattus norvegicus [2]; 100 mg/kg, 3 h, dose level Low): 57.8 mg/dL | BUN (Rattus norvegicus [2]; 100 mg/kg, 6 h, dose level Low): 10.6 mg/dL | Ca (Rattus norvegicus [2]; 100 mg/kg, 6 h, dose level Low): 10.4 mg/dL | TG (Rattus norvegicus [2]; 100 mg/kg, 6 h, dose level Low): 45 mg/dL | BUN (Rattus norvegicus [2]; 100 mg/kg, 9 h, dose level Low): 11.2 mg/dL | Ca (Rattus norvegicus [2]; 100 mg/kg, 9 h, dose level Low): 10.5 mg/dL | TG (Rattus norvegicus [2]; 100 mg/kg, 9 h, dose level Low): 36.8 mg/dL | BUN (Rattus norvegicus [2]; [11]): 14.4 mg/dL | Ca (Rattus norvegicus [2]; [11]): 10.7 mg/dL | TG (Rattus norvegicus [2]; [11]): 76.2 mg/dL | BUN (Rattus norvegicus [2]; [12]): 10.6 mg/dL | Ca (Rattus norvegicus [2]; [12]): 10.3 mg/dL | TG (Rattus norvegicus [2]; [12]): 31 mg/dL | BUN (Rattus norvegicus [2]; [13]): 10.4 mg/dL | Ca (Rattus norvegicus [2]; [13]): 10.4 mg/dL | TG (Rattus norvegicus [2]; [13]): 33 mg/dL | BUN (Rattus norvegicus [2]; [14]): 10.2 mg/dL | Ca (Rattus norvegicus [2]; [14]): 10.2 mg/dL | TG (Rattus norvegicus [2]; [14]): 27.4 mg/dL | BUN (Rattus norvegicus [2]; [15]): 13.4 mg/dL | Ca (Rattus norvegicus [2]; [15]): 10.8 mg/dL | TG (Rattus norvegicus [2]; [15]): 86.2 mg/dL | BUN (Rattus norvegicus [2]; [16]): 10 mg/dL | Ca (Rattus norvegicus [2]; [16]): 10.3 mg/dL | TG (Rattus norvegicus [2]; [16]): 34.6 mg/dL | BUN (Rattus norvegicus [2]; [17]): 9.8 mg/dL | Ca (Rattus norvegicus [2]; [17]): 10.2 mg/dL | TG (Rattus norvegicus [2]; [17]): 28.2 mg/dL | BUN (Rattus norvegicus [2]; [18]): 10.6 mg/dL | Ca (Rattus norvegicus [2]; [18]): 10.4 mg/dL | TG (Rattus norvegicus [2]; [18]): 46.6 mg/dL | BUN (Rattus norvegicus [2]; [19]): 10.8 mg/dL | Ca (Rattus norvegicus [2]; [19]): 10.5 mg/dL | TG (Rattus norvegicus [2]; [19]): 60 mg/dL

Source: ChEMBL document CHEMBL3885861, “Open TG-GATES”
